Results on one molecule are retold here after patent US7429673B2, “TRPV1 agonists, formulations containing them and uses thereof” (priority 2004, dated 2008).

The chains behind the UniProt entries cited, without tags or fusion partners.
UniProt Q8NER1, whole entry: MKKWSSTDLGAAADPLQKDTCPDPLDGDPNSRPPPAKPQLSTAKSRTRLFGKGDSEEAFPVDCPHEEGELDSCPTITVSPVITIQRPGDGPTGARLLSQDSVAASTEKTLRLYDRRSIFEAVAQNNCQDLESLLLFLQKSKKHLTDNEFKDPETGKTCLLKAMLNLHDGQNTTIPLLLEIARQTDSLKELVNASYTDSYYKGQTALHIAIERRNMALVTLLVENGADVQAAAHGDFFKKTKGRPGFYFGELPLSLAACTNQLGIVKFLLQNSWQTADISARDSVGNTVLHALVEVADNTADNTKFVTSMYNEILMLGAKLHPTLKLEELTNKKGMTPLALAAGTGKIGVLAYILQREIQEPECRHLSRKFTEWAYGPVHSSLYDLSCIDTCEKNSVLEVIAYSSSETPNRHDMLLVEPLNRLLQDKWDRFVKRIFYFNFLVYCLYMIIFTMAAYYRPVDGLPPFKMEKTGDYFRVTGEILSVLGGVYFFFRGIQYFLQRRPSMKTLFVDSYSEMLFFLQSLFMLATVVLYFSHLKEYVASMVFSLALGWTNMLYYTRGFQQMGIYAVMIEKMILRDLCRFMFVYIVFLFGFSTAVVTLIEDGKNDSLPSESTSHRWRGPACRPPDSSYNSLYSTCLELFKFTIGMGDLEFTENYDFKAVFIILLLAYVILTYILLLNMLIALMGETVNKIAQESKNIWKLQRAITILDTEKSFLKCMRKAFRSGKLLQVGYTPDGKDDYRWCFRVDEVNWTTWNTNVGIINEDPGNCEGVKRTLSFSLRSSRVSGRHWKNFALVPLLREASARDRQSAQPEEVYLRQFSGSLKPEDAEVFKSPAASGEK

The target of this test is human TRPV1 (Homo sapiens, UniProt Q8NER1). As to the kind of experiment: TPRV1 binding assay, displacement of [3H]RTX from HEK cells membranes. The settings on record: read-out: Kd for [3H]RTX, 50 μg/tube, tested as the radiolabelled form. The procedure: Affinity for human TRPV1 was measured by displacement of [3H]RTX (48 Ci/mmol, NEN-Dupont) from HEK cells membranes (50 μg/tube) according to the method described by Ross (Ross et al., Br. J. Pharmacol. 2001, 132, 631-640). In these conditions Kd and Bmax for [^3H]RTX were 0.5 nM and 1.39 pmol/mg protein. The Ki of the displacement of 1 nM [3]RTX was calculated from the IC50 value (obtained with GraphPad Software) using Cheng-Prusoff's equation. Specific binding was calculated with 1 μM RTX (Alexis Biochemicals) and was 48.1+5.6%.

Molecules are shown by their SMILES.

`C=C(C)C12CC(C)C34OC(Cc5ccccc5)(OC1C3C=C(COC(=O)Cc1ccc(O)c(OC)c1)CC1(O)C(=O)C(C)=CC14)O2` (stereo not shown): the Kd was found to be 0.5 nM.
